# Epigenetic reg: epigenetic control regulation, reporter derepression; murine LDR cells, GFP reporter derepression, 30 h; Potency, µM (highest dose often 53.9 µM), for the others: top-dose GFP activation, most hits filed as activators; 280,000 tested, 0.2% active; also: potency is read from the fitted curve at half-maximal effect; % of control where 0% means no effect; nearly all actives have a fitted effect of over 60% in size
#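 Murine LDR cells carrying a silenced, genomically integrated CMV-driven GFP reporter were exposed to compound for 30 hours at 37 C. After PBS washes, GFP-positive cells (20–120 um objects) were counted by laser-scanning microplate cytometry.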
# Vif-A3F inh: Vif-A3F binding inhibition; HeLa A3F-eYFP + Vif (tagged APOBEC3F with the HIV-1 protein that degrades it), YFP fluorescence increase; Potency, µM (top dose mostly 46.1 µM), for inactives: top-dose activity, negative = active; 390,000 tested, 0.2% active; AID 602313; also: potency is read from the fitted curve at half-maximal effect; % of control where 0% means no effect; nearly all actives have a fitted effect of over 65% in size
#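 Fluorescence increase (Ex 488/Em 500-530) after overnight compound treatment at 37 deg C flags inhibition of Vif-driven A3F-eYFP loss in stable HeLa A3F-eYFP/Vif cells seeded overnight beforehand.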
# Vif-APOBEC3G blk: inhibitors of Vif-APOBEC3G interaction; HeLa A3G-eYFP + Vif (tagged APOBEC3G with the HIV-1 protein that degrades it), YFP fluorescence, overnight; Potency, µM (top dose mostly 46.1 µM), for the others: top-dose activity, negative = active, usual class: inhibitors; 410,000 tested, 0.076% active; AID 602310; also: potency is read from the fitted curve at half-maximal effect; % is scaled to controls: 0 for no effect and ±100 for the full control effect; nearly all actives have a fitted effect of over 60% in size
#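 HeLa cells stably expressing Vif and C-terminally eYFP-tagged A3G, seeded overnight at 37 deg C, then exposed to compound by pintool overnight at 37 deg C. Rise in yellow fluorescence (Ex 488/Em 500-530, Acumen) marks blocked Vif-driven A3G degradation.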
# miR-21 FLuc: miR-21 reporter, rising signal; Potency, µM (titrated, usually from 38.3 µM), without a hit: at the highest dose reporter change, positive = more light; AID 2288; 340,000 tested, under 10 active; HeLa miR-21 FLuc reporter, luciferase, 48 h; active = well fitted rising curve with a large enough effect; inconclusive = small, poorly fitted or top-dose-only effect; inactive = no such curve, though single readings can be large or run the other way;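 note: % of control where 0% means no effect; miR-21 action dims this reporter so a rising signal means less miR-21 action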
#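 HeLa miR-21-FLuc reporter line, endogenous miR-21; 2000 cells/well in DMEM/10% FBS; compound titration up to ~40uM final, 48 h, 37 degree Celsius; luciferase detection reagent, 15 min lysis, CCD luminescence.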
# Starred values were filed as active, the others as inactive; ? = inconclusive; nt = no result. Shown are actives, neighbours in structure and some others; about 0.34% of the full set was active somewhere. Unless noted, calls follow the shape of the dose curve; as a rule, active = well fitted curve in the direction sought with a large enough effect; inconclusive = small, poorly fitted or top-dose-only effect, or another doubt; inactive = no such curve, though single readings can be large; an effect the other way counts as inactive or inconclusive.
# Field names – A = Epigenetic reg; B = Vif-A3F inh; C = Vif-APOBEC3G blk; D = miR-21 FLuc
O=C1C(Nc2ccccc2)=CC(=O)c2ncccc21
  A = 0.0% | B = nt | C = nt | D = nt

CC(NC1=CC(=O)c2cccnc2C1=O)C(O)c1ccccc1 (stereo not given)
  A = nt | B = ? | C = 10µM* | D = nt

O=C(NCc1cccnc1)c1nn(-c2ccc(F)cc2)nc1CO
  A = 8.0% | B = 0.9% | C = -2.3% | D = 1.4%

Cc1nn(C)cc1/C=N/NC(=S)Nc1ccccc1
  A = 3.98µM* | B = 5.5% | C = -1.0% | D = -38.1%

CCc1nn(CC(=O)NC2CC2)c(=O)c2cc3ccccc3n12
  A = 0.0% | B = -4.1% | C = 2.3% | D = -8.5%

O=C(CSc1nc2c(cnn2-c2ccc(F)cc2)c(=O)[nH]1)Nc1ccc(Br)cc1
  A = -0.3% | B = 0.9% | C = 1.1% | D = 14.6%

CCCCn1c(N)c(N(CC(C)C)C(=O)Cc2ccc(S(=O)(=O)N3CCOCC3)s2)c(=O)[nH]c1=O
  A = nt | B = 25.1µM* | C = ? | D = nt

CCN(CC)Cc1c(O)ccc2c1O/C(=C\C=C\c1ccccc1)C2=O
  A = -1.1% | B = ? | C = -3.9% | D = ?

COCCN(CCOC)Cc1c(O)ccc2c1O/C(=C\c1ccc(C)o1)C2=O
  A = nt | B = 25.1µM* | C = -0.7% | D = -3.2%

Fc1ccc(CSc2nncn3c2cc2occc23)c(Cl)c1
  A = 1.8% | B = -3.4% | C = -1.8% | D = -21.5%

COc1ccc2c(Cl)c(C(=O)N/N=C3\CCCC(=O)C3)sc2c1
  A = 11.2µM* | B = ? | C = 2.82µM* | D = -34.5%

COc1ccc2c(Cl)c(C(=O)N/N=C/c3ccc4c(c3)OCO4)sc2c1
  A = 7.0% | B = ? | C = -26.9% | D = 0.3%

CN(C)c1ccc(/C=C/c2ccnc3ccc(I)cc23)cc1
  A = nt | B = nt | C = 8.91µM* | D = nt

Nc1c(Br)cc(/C=C/c2ccnc3ccccc23)cc1Br
  A = nt | B = nt | C = -4.2% | D = nt

CN(C)c1ccc(/C=C/c2ccnc3ccccc23)cc1
  A = nt | B = nt | C = 11.2µM* | D = nt

Cc1cc(N(C)C)ccc1/C=C/c1ccnc2ccccc12
  A = nt | B = nt | C = -1.0% | D = nt

Cc1cc(/C=C/c2ccnc3ccccc23)ccc1N
  A = nt | B = nt | C = 10µM* | D = nt

Cc1cc(N(C)C)c(C)cc1/C=C/c1ccnc2ccccc12
  A = nt | B = nt | C = 14.1µM* | D = nt

CN(C)c1ccc(/C=C/c2ccnc3c([N+](=O)[O-])cccc23)cc1
  A = nt | B = nt | C = -11.5% | D = nt

CN(C)c1ccc(/C=C/c2ccnc3c(Cl)ccc(Cl)c23)cc1
  A = nt | B = nt | C = 3.55µM* | D = nt

CCCN(CCC)c1ccc(/C=C/c2ccnc3ccccc23)cc1
  A = nt | B = nt | C = 11.2µM* | D = nt

Cc1cc(C)c2nccc(/C=C/c3ccc(N(C)C)cc3)c2c1
  A = nt | B = nt | C = 10µM* | D = nt

COc1cccc(N2CCN(C(=O)c3ccc4c(=O)n(CCc5ccccc5)c(=O)[nH]c4c3)CC2)c1
  A = 0.1% | B = -6.5% | C = -1.4% | D = ?

CC(C)(C)n1ncc2c(=O)n(Cc3ccc(F)cc3F)cnc21
  A = nt | B = nt | C = -3.4% | D = nt

COC(=O)Cn1c(C)c(/C=C/c2cc[n+](C)cc2)c2ccccc21
  A = nt | B = 11.2µM* | C = ? | D = 13.0%

COC(=O)c1sc2nc(CSc3ccc(Br)cc3)[nH]c(=O)c2c1C
  A = 7.3% | B = 11.2µM* | C = -4.1% | D = -17.5%

COCCn1c(SCc2nc3sc(C(=O)OC)c(C)c3c(=O)[nH]2)nc2ccccc21
  A = -1.2% | B = ? | C = 2.8% | D = -0.9%

COc1ccccc1N1C(=O)c2cccc3c(N(C)CCO)ccc(c23)C1=O
  A = nt | B = ? | C = ? | D = -10.5%

Cc1ccccc1N1C(=O)c2cccc3c(N(C)CCO)ccc(c23)C1=O
  A = 13.4% | B = 12.6µM* | C = 7.0% | D = 0.2%

Cc1ccc(NC(=O)COc2ccccc2C(=O)Nc2ccccc2)cc1
  A = nt | B = nt | C = 2.7% | D = nt

CC1=C(n2nnc3ccccc32)C(c2ccccc2)C(C#N)=C(N)O1 (stereo not given)
  A = 3.2% | B = 25.1µM* | C = -17.0% | D = 2.5%

Cc1nn(-c2ccccc2)c2c1C(c1ccncc1)C(C#N)=C(N)O2 (stereo not given)
  A = 1.3% | B = -14.1% | C = -0.3% | D = 0.5%

CCOc1ccc(-n2nc3c(SCCN4CCCC4)nnc(C)c3c2C)cc1
  A = ? | B = ? | C = ? | D = -6.0%

Cc1ccc(-n2nc3c(SCCN4CCOCC4)nnc(C)c3c2C)cc1
  A = 0.0% | B = 25.1µM* | C = ? | D = -3.0%

Cc1ccc(NC(=S)N/N=C2\CCCCC2C)cc1 (stereo not given)
  A = 1.1% | B = 22.4µM* | C = ? | D = 2.3%

CCOC(=O)c1ccc(NC(=S)Nc2cccc(C)n2)cc1
  A = -1.1% | B = 11.2µM* | C = 2.7% | D = -12.7%

CCN(CC)c1ccc2cc(-c3nc(-c4ccccc4)no3)c(=O)oc2c1
  A = 14.1µM* | B = ? | C = -34.1% | D = -36.5%

Cc1ccc(Nc2nnc(-c3cc4c(ccc5ccccc54)oc3=O)s2)cc1
  A = -0.8% | B = 7.3% | C = 6.9% | D = 1.1%

O=c1oc2ccccc2cc1-c1nc(-c2ccccc2)no1
  A = 3.4% | B = 2.7% | C = 0.4% | D = -37.3%

# Random excerpt: 3 compounds from above.
# Field names – A = Epigenetic reg; B = Vif-A3F inh; C = Vif-APOBEC3G blk; D = miR-21 FLuc
O=c1oc2ccccc2cc1-c1nc(-c2ccccc2)no1
  A = 3.4% | B = 2.7% | C = 0.4% | D = -37.3%

Cc1ccccc1N1C(=O)c2cccc3c(N(C)CCO)ccc(c23)C1=O
  A = 13.4% | B = 12.6µM* | C = 7.0% | D = 0.2%

COCCn1c(SCc2nc3sc(C(=O)OC)c(C)c3c(=O)[nH]2)nc2ccccc21
  A = -1.2% | B = ? | C = 2.8% | D = -0.9%
